Assay: Inhibition of Phosphodiesterase 5 from porcine platelets

An IC50 of 0.054 µM was found for `COc1ccc(CNc2nnc(Cl)c3ccc(Cl)cc23)cc1Cl` [(3-Chloro-4-methoxy-benzyl)-(4,7-dichloro-phthalazin-1-yl)-amine] in this work.

From BindingDB's records for doi:10.1021/jm970815r (Eisai, 1998)
